# Laboratory results as given in patent publication US20050101623A1 (Pharmacia Corporation, priority 2003, published 2005).
# Protein sequences, listed by entry. Tags and fused reporters are not part of them.
# UniProt P49137, whole entry, species assumed: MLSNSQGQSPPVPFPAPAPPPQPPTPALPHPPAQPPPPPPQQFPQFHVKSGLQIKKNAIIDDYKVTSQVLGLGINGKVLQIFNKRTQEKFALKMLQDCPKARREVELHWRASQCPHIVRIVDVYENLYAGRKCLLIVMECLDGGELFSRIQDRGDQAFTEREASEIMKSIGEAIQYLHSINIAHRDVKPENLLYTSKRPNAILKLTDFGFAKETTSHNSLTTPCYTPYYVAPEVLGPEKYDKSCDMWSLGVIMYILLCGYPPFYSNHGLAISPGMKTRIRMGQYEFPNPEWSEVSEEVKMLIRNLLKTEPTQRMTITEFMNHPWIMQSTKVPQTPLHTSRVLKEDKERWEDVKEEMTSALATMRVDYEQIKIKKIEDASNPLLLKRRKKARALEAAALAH
# Biological target: Recombinant MAPKAPK2 (MK-2) (Homo sapiens, UniProt P49137)
# Assay: Determination of MK-2 IC50 (phosphorylation of HSP-peptide, anion exchange resin capture assay)
# Assay type: biochemical
# [1] = additional values are replicate IC50 experiments, read-out: MK-2 Avg. IC50
# [2] = MK-2 Avg. IC50, additional values are replicate IC50 experiments
Compound,IC50 [1],IC50 [2]
"CSc1ccc2[nH]c3c(c2c1)C1CCN(C1)C3C(=O)O (stereo not shown) [No. 4, 7-(methylthio)-3,4,5,10-tetrahydro-1H-2,5-methanoazepino[3,4-b]indole-1-carboxylic acid]",0.79 µM,–
"COc1ccc2[nH]c3c(c2c1)C1CCN(C1)C3C(=O)OC(C)C (stereo not shown) [No. 42, 1-adamantyl 7-methoxy-3,4,5,10-tetrahydro-1H-2,5-methanoazepino[3,4-b]indoie-1-carboxylate hydrochloride]",–,9.85 µM
"COC(=O)C1c2[nH]c3ccc(O)cc3c2C2CCN1C2 (stereo not shown) [No. 44, 7-methoxy-N-methyl-3,4,5,10-tetrahydro-1H-2,5-methanoazepino[3,4-b]indole-1-carboxamide]",5.38 µM,–
COc1ccc2[nH]c3c(c2c1)C1CCN(C1)C3C(=O)OC12CC3CC(CC(C3)C1)C2 (stereo not shown) [compound 42],149 µM,–
"COc1ccc2[nH]c3c(c2c1)C1CCN(C1)C3C(=O)OC1C(C)(C)CCCC1(C)C (stereo not shown) [compound 43, 2,2,6,6-tetramethylcyclohexyl 7-methoxy-3,4,5,10-tetrahydro-1H-2,5-methanoazepino[3,4-b]indole-1-carboxylate trifluoroacetate]",–,151 µM
COCCNC(=O)C1c2[nH]c3ccc(OC)cc3c2C2CCN1C2 (stereo not shown) [compound 49],–,> 200 µM
COc1ccc2[nH]c3c(c2c1)C1CCN(C1)C3C(=O)OC1CCCCC1 (stereo not shown) [hydrochloride],–,57.3 µM

# Structures can show the parent of a compound that is named as a salt. Where two headings read alike, the source gives them in different places.
